The list shows a part of the results, in another mix than the full data. Calls of active or inactive are those of the source.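 Rule for the calls: active = viability at or under a set limit in both replicates, limit being median viability minus 3 SD (cut at about 48% in these data, passing the limit was not always enough); inconclusive = at or under the limit in just one replicate; inactive = at or above the limit in both replicates.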

A short description of the assay: H69AR cell proliferation blockers – human, duplicate replicates, primary screen (AID 580).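 Note: 100% = mean luminescence of untreated wells and 0% = no signal.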 The note with it: H69AR lung tumor cells viability, ATP luminescence, 72 h; at 10 µM; stronger effect = lower value.
Broadly, the viability is a read-out of living cells in per cent, often relative to untreated cells. As to `O=C(COc1ccccc1)OC1CN2CCC1CC2` (stereo not given), the viability was inactive: 105%. Consider `COP1(=S)c2c(C)nn(CCC#N)c2N=C(c2ccc(F)cc2)N1C` (stereo not given), for which the viability is inactive: 78.2%. In the case of `CCOP1(=S)c2c(C)nn(CCC#N)c2N=C(c2ccccc2F)N1C` (stereo not given) it was inactive: 79.3%. Turning to `Cc1nn(-c2ccccc2)c2c1P(=O)(N1CCOCC1)N(C)C(c1ccccc1)=N2` (stereo not given), the viability is inactive: 89.8%. As to `O=P(Nc1nccs1)(c1ccccc1)c1ccccc1`, the viability is inactive: 103%.

(Values after PubChem BioAssay AID580 (SRMLSC, 2007).)
